Experimental data reported in EP4745153A1, “GLP-1, GIP AND GCG RECEPTOR […] USE THEREOF” (Jiangsu Hengrui Pharmaceuticals Co., Ltd., priority 2023, dated 2025).

By UniProt entry, the sequences of proteins in these tests, tags left out. Residues count along the entry.
UniProt P47871, 26-477: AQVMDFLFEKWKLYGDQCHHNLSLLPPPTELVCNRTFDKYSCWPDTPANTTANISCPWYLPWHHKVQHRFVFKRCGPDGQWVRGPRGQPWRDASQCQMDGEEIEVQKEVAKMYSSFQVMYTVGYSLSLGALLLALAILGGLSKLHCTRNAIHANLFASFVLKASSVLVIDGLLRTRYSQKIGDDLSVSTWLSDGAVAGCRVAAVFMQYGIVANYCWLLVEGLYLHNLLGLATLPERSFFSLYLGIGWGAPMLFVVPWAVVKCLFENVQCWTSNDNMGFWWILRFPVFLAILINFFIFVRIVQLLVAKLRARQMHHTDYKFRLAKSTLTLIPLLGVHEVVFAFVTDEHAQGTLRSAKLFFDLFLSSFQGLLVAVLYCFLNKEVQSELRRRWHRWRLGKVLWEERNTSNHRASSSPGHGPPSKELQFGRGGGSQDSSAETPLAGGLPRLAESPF
UniProt P43220, 24-463: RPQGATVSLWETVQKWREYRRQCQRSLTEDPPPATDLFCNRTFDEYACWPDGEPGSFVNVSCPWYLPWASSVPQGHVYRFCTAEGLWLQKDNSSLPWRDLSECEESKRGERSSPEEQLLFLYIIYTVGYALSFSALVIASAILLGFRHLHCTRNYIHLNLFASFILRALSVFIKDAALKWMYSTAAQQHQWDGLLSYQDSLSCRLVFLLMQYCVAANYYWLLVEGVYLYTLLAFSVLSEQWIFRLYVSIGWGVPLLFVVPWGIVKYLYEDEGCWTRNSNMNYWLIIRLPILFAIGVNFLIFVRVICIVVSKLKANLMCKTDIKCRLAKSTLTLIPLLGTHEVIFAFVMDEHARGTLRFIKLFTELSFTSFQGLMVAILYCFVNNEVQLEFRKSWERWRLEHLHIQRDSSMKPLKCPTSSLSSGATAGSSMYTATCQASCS

Assays:
Format in all cases: cell-based
human GCGR = target: T1, human GCGR (Homo sapiens, UniProt P47871); assay: cAMP HTRF agonist activity assay in CHO-K1 cells expressing GCGR; details: read-out: Activity against human GCGR (EC50 nM); CHO-K1 clonal cell line, intracellular cAMP (HTRF), 5% FBS, 0.1% Casein, 37°C 30 min; relative EC50 vs maximum response of human GCG (1-29)
T1 construct: expressed in transfected cells; host or cells: CHO-K1 clonal cell line
Procedure: (§1) Functional activity was determined in CHO-K1 clonal cell lines expressing GIPR, GLP-1R, and GCGR. […] Each recipient cell (5000 cells/well) was added to an SV 96-well plate (Cisbio, 66PL96025) and incubated with the prepared polypeptide at 37°Cfor 30 min. The resulting increase in intracellular cAMP was quantitatively measured using the cAMP-GS dynamic HTRF assay kit (Cisbio, 62AM4PEJ). Briefly, the intracellular cAMP levels were determined by adding cAMP-d2 conjugate in cell lysis buffer, followed by the antibody anti-cAMP-Eu cryptate (also in cell lysis buffer).
(§2) Using the maximum response percentage vs. the added polypeptide concentration, the relative EC50 values were derived through nonlinear regression analysis and fitted to a four-parameter logarithmic equation. For specific data, refer to Tables 7-1 to 7-8 below. […]

human GLP-1R = target: T2, human GLP-1R (Homo sapiens, UniProt P43220); assay: cAMP HTRF agonist activity assay in CHO-K1 cells expressing GLP-1R; details: read-out: Activity against human GLP-1R (EC50 nM); CHO-K1 clonal cell line, intracellular cAMP (HTRF), 5% FBS, 0.1% Casein, 37°C 30 min; relative EC50 vs maximum response of human GLP-1(7-36)-NH2
T2 construct: expressed in transfected cells; host or cells: CHO-K1 clonal cell line
Procedure: as §1, §2

human GIPR = target: T3, human GIPR (Homo sapiens, UniProt P48546); assay: cAMP HTRF agonist activity assay in CHO-K1 cells expressing GIPR; details: read-out: Activity against human GIPR (EC50 nM); CHO-K1 clonal cell line, intracellular cAMP (HTRF), 5% FBS, 0.1% Casein, 37°C 30 min; relative EC50 vs maximum response of human GIP(1-42)-NH2
T3 construct: expressed in transfected cells; host or cells: CHO-K1 clonal cell line
T3 sequence (P48546 22-466): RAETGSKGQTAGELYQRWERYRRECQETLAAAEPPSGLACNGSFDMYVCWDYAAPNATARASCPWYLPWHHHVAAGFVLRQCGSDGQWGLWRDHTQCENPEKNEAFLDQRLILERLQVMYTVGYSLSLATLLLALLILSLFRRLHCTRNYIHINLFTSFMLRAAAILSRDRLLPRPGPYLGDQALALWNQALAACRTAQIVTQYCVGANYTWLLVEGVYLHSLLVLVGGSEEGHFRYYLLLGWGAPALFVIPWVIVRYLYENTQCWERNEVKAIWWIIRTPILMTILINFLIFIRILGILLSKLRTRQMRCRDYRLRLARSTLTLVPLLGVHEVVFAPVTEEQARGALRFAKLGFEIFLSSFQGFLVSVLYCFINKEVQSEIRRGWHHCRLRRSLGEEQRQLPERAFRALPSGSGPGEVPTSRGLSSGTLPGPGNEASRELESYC
Procedure: as §1, §2

Row | Substance | EC50 (human GCGR) [nM] | EC50 (human GLP-1R) [nM] | EC50 (human GIPR) [nM]
1 | H-Aib-QGTFTSDYSI-αL-LE-K(-OEG-OEG-γGlu-C(O)-(CH2)18-COOH)-KAAQEFVEWLLAGGPSSGAPPPS-NH2 [Compound 0155] | 3.66 | 0.036 | 0.014
2 | H-Aib-HGTFTSDYSKYLE-K(-OEG-OEG-γGlu-C(O)-(CH2)18-COOH)-αK-AAQEFVEWLLAGGPSSGAPPPS-NH2 [Compound 0109] | 0.031 | 0.011 | 0.027
3 | H-Aib-HGTFTSDYS-αK-YLE-K(-OEG-OEG-γGlu-C(O)-(CH2)18-COOH)-KAAQEFVEWLIAGGPSSGAPPPS-NH2 [Compound 0111] | 0.552 | 0.015 | 0.024
4 | H-Aib-HGTFTSDYS-αK-ILE-K(-OEG-OEG-γGlu-C(O)-(CH2)18-COOH)-KAA-Iva-EFVEWLIEGGPSSGAPPPS-NH2 [Compound 0132] | 0.03 | 0.024 | 0.001
5 | H-Aib-HGTFTSDYS-αK-LLE-K(-OEG-OEG-γGlu-C(O)-(CH2)15-COOH)-IAAQEFVEWLLAGGPSSGAPPPS-NH2 [Compound 0118] | – | 0.073 | 0.004
6 | H-Aib-HGTFTSDYSKY-αL-E-K(-OEG-OEG-γGlu-C(O)-(CH2)18-COOH)-KAAQEFVEWLLAGGPSSGAPPPS-NH2 [Compound 0108] | 0.315 | 0.014 | 0.078
7 | Y-Aib-QGTFTSDYS-αK-LLE-K(-OEG-OEG-γGlu-C(O)-(CH2)18-COOH)-KAAQEFVEWLLAGGPSSGAPPPS-NH2 [Compound 0114] | – | – | 0.01
8 | H-Aib-HGTFTSDYS-αK-LLE-K(-OEG-OEG-γGlu-C(O)-(CH2)18-COOH)-QAAQEFVEWLLAGGPSSGAPPPS-NH2 [Compound 0117] | – | 0.059 | 0.003
9 | H-Aib-HGTFTSDYSK-αY-LE-K(-OEG-OEG-γGlu-C(O)-(CH2)15-COOH)-KAAQEFVEWLLAGGPSSGAPPPS-NH2 [Compound 0106] | 0.095 | 0.03 | 0.027
10 | H-Aib-HGTFTSDLS-αK-ILE-K(-OEG-OEG-γGlu-C(O)-(CH2)18-COOH)-KAA-Iva-EFVEWLIEGGPSSGAPPPS-NH2 [Compound 0134] | 0.025 | 0.017 | 0.002
